Here are results for 5 compounds from ChEMBL document CHEMBL4138208, “Targeting tubulin polymerization by novel 7-aryl-pyrroloquinolinones: Synthesis, biological activity and SARs” (Eur J Med Chem, 2018).

The nature of data set [1]: Inhibition of bovine brain tubulin polymerization preincubated for 15 mins followed by GTP addition measured after 20 mins by spectrophotometric analysis. Also noted: species or system Bos taurus.
In another data set the test system is HeLa. In words: Growth inhibition of human HeLa cells after 72 hrs by MTT assay. The format is functional. In short, it runs like this:
(§1)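 Cells seeded at 8 × 10^3 per well and preincubated 18 h at 37 °C, 5% CO2. Leukemia lines were in RPMI-1640 and adherent lines in DMEM, each with 10% FBS plus penicillin/streptomycin. Medium replaced with compound at varying concentrations, in triplicate, for 72 h.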

In a further data set the test system is A549. Nature of the data set: Growth inhibition of human A549 cells after 72 hrs by MTT assay. Conditions: A549, 72 h. The format is functional. The gist of the method: as §1
Another data set relates to HT-29. Nature of the data set: Growth inhibition of human HT-29 cells after 72 hrs by MTT assay. Conditions: HT-29, 72 h. The format is functional. In short, it runs like this: as §1
The next data set has as its system MDA-MB-231. Nature of the data set: Growth inhibition of human MDA-MB-231 cells after 72 hrs by MTT assay. The format is functional. Conditions: MDA-MB-231, 72 h. In short, it runs like this: as §1
A further data set concerns RS4-11. Nature of the data set: Growth inhibition of human RS4:11 cells after 72 hrs by MTT assay. It is filed as functional. Conditions: RS4-11, 72 h. In short, it runs like this: as §1
The subject of the next data set is Jurkat. Nature of the data set: Growth inhibition of human Jurkat cells after 72 hrs by MTT assay. It is filed as functional. The gist of the method: as §1
The next data set relates to Kasumi 1. Nature of the data set: Growth inhibition of human Kasumi-1 cells after 72 hrs by MTT assay. It is filed as functional. Conditions: Kasumi 1, 72 h. The gist of the method:
as §1

Data set [2] concerns PBL. Conditions: human, 72 h.
Data set [3] has as its system PBL. Conditions: human, 72 h. The source holds these as a separate data set.

In turn, `CCn1ccc2cc3c(=O)cc(-c4ccccc4)[nH]c3cc21` registered a half-maximal inhibitory concentration (IC50) in data set [1] of 6200 nM. In other words, the single-digit micromolar range.
For `CCn1ccc2c3c(=O)cc(-c4cccc5ccccc45)[nH]c3ccc21`, the GI50 was determined as 0.5 nM in the data set with HeLa; 4.2 nM in the data set on A549; 1.9 nM in the data set on HT-29; 17.1 nM in the data set on MDA-MB-231; 0.5 nM with RS4-11; 0.7 nM in the data set on Jurkat. Also, the results for the GI50 with Kasumi 1, in the data set with PBL [2] and with PBL [3] were 0.4 nM, more than 100000 nM and 25700 nM, respectively.
As for `CCn1ccc2c3c(=O)cc(-c4ccc5c(c4)CCCC5)[nH]c3ccc21`, the 50% growth inhibitory concentration (GI50) worked out at 34 nM with HeLa; 45 nM with A549; 4.7 nM in the data set on HT-29; 591 nM in the data set with MDA-MB-231; 7 nM with RS4-11; 3 nM with Jurkat. The same compound came in with a GI50 with Kasumi 1 of 15 nM.
For `CCn1ccc2ccc3[nH]c(-c4ccccc4)cc(=O)c3c21`, the IC50 in data set [1] was found to be 6200 nM.
For the compound `CCn1ccc2c3c(=O)cc(-c4ccc5c(c4)OCO5)[nH]c3ccc21`, the GI50 was determined as 4.2 nM with HeLa; 1.1 nM in the data set with A549; 0.6 nM in the data set with HT-29; 123 nM with MDA-MB-231; 0.2 nM in the data set on RS4-11; 0.1 nM in the data set with Jurkat. Further, the figures for the GI50 in the data set with Kasumi 1, in the data set with PBL [2] and with PBL [3] were 0.3 nM, 45300 nM and 23000 nM, respectively.
